Source: publication PMC9104108, “Purification and Identification of Novel Myeloperoxidase Inhibitory Antioxidant Peptides from Tuna (Thunnas albacares) Protein Hydrolysates” (Molecules, 2022)

How the values were obtained:
MPO [1] = molecular target: T1, MPO (Homo sapiens, UniProt P05164); test: MPO inhibitor screening assay kit, peroxidation assay; format: biochemical
T1 construct: purchased Abnova, Taiwan
T1 sequence (P05164 49-745): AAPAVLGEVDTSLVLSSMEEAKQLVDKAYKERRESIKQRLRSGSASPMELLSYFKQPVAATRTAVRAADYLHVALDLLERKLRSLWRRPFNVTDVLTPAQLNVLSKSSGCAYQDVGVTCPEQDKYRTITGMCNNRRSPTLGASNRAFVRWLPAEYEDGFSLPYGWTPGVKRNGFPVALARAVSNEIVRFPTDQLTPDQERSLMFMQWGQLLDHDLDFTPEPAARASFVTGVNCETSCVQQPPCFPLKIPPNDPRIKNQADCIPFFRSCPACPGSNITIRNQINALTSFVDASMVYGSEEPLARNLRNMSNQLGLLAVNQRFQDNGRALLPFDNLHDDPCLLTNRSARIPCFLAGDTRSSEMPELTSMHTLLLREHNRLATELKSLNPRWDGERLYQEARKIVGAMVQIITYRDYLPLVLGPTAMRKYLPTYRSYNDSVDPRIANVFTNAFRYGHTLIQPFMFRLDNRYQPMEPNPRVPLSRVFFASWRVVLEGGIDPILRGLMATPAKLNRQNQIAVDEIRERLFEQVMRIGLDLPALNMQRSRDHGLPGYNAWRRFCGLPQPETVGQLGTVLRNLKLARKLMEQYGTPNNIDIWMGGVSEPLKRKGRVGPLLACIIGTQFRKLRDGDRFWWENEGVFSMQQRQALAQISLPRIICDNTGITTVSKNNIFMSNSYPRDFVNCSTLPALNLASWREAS
Source text: (§1) The inhibitory effect of peptides on MPO was estimated using an MPO inhibitor screening assay kit (Abnova, Taiwan), which was used to assess in both the peroxidation and chlorination activities of MPO. Peroxidation assay utilizes the peroxidase component of MPO. During the reaction, hydrogen peroxide reacts with 10-acetyl-3,7-dihydroxyphenoxazine (ADHP) to yield resorufin, a highly fluorescent compound. The chlorination assay utilizes non-fluorescent 2-[6-(4-aminophenoxy)-3-oxo-3H-xanthen-9-yl]-benzoic acid (APF), which is selectively cleaved by hypochlorite to produce fluorescein. The 4-aminobenzhydrazide was used as positive control. The MPO inhibitory activity was determined according to the kit instructions.

MPO [2] = molecular target: T1, MPO; test: MPO inhibitor screening assay kit, chlorination assay; format: biochemical
Source text: as §1

IC50 (MPO [1]): 32.8 µM
IC50 (MPO [2]): 27.2 µM
SMILES: CC(C)[C@H](NC(=O)[C@H](CO)NC(=O)[C@H](CCCNC(=N)N)NC(=O)[C@H](CCCNC(=N)N)NC(=O)[C@H](CCCNC(=N)N)NC(=O)[C@H](CCCNC(=N)N)NC(=O)CN)C(=O)N[C@@H](CCC(N)=O)C(=O)N[C@@H](Cc1c[nH]c2ccccc12)C(=O)N[C@@H](CS)C(=O)N[C@@H](C)C(=O)O [GRRRRSVQWCA, reference compound]
